Where two headings read alike, the source gives them in different places.
Molecular target: T1, PTP1B (Homo sapiens, UniProt P18031)
T1 sequence (P18031 3-277 limits assumed): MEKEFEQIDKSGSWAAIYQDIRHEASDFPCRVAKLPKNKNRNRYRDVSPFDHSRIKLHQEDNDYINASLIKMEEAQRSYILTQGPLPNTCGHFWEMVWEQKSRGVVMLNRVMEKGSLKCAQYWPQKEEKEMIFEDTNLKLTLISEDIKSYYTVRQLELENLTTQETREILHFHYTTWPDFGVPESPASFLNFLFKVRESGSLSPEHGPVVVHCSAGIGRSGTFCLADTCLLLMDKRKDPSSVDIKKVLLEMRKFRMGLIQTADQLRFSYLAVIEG
Assay: In vitro PTP1B inhibitory assay (Fluorogenic PTP1B (Catalytic Domain) Assay)

IC50 [µM]	Compound	IC50 (read-out: IC50 (µM ± SD) PTP1B, 1–50 µM, duplicate, 30 min incubation, mean ± SD) [µM]
6.3 ± 0.029	CC(=O)c1cc(F)cc([N+](=O)[O-])c1OS(=O)(=O)c1ccccc1F [Compound 2a, 2-Acetyl-4-fluoro-6-nitrophenyl 2-fluorobenzenesulfonate]	
	sodium vanadate [Na3VO4, reference compound]	6.3 ± 0.05

From article PMC11594133, “Enzyme (α-Glucosidase, α-Amylase, PTP1B & VEGFR-2) Inhibition and Cytotoxicity of Fluorinated Benzenesulfonic Ester Derivatives of the 5-Substituted 2-Hydroxy-3-nitroacetophenones” (International Journal of Molecular Sciences, 2024)
